Laboratory results as given in US20240360179A1, “STAPLED PEPTIDES AND METHODS THEREOF” (FOG PHARMACEUTICALS, INC., priority 2021, published 2024).

By UniProt entry, the sequences of proteins in these tests, tags left out.
UniProt P35222, whole entry: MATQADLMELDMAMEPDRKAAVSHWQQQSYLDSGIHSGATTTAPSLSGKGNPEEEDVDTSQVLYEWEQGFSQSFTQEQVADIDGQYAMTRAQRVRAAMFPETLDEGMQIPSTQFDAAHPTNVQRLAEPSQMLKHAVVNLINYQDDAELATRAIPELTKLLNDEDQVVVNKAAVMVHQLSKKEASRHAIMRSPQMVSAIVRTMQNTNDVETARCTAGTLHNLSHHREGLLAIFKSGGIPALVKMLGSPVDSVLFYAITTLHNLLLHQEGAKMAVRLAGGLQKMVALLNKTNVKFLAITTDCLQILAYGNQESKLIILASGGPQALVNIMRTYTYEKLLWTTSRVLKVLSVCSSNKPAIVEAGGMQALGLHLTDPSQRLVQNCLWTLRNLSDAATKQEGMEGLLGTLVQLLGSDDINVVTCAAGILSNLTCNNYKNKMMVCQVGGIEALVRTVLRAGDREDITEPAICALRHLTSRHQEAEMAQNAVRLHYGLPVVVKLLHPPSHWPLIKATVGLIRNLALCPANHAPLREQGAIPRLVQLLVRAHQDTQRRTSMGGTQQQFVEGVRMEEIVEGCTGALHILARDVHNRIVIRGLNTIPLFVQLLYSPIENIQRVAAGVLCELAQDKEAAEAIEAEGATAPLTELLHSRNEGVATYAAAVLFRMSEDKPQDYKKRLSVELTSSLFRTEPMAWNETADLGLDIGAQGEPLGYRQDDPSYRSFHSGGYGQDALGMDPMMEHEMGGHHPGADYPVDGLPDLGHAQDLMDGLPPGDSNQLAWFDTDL

Legend:
[1] = target: T1, full-length B-Catenin (Uniprot ID P35222) (Homo sapiens, UniProt P35222); test: biochemical; type: binding; details: beta-Catenin FP IC50 (nM), competition fluorescence polarization
T1 construct: 10 nM full-length B-Catenin (Uniprot ID P35222)

[2] = target: beta-catenin/TCF4 interaction (Homo sapiens, UniProt P35222); test: cell-based; design: host or cells: HEK293; details: NanoBRET Abs IC50 (uM)

Structure (SMILES)	IC50 [1] [nM]	IC50 [2] [µM]	IC50 ([2]; absolute IC50) [µM]
CC(=O)N1CCC[C@]12CC=CCCCC1(CCCC=CCCCOC(=O)N3CC[C@@]4(C3)NC(=O)[C@H](CCCCNC(=O)CC[C@@H](C(=O)N[C@@H](C)C(N)=O)NC(=O)[C@H](Cc3csc5ccccc35)NC(=O)[C@H](Cc3ccsc3)NC4=O)NC(=O)[C@H](Cc3ccccc3)NC(=O)[C@H](C)NC(=O)C(C)(C)NC(=O)[C@H](Cc3cccc(C(=O)O)c3)NC(=O)[C@H](CC(=O)O)NC1=O)NC(=O)[C@H](Cc1c[nH]c3ccccc13)NC(=O)[C@H](CC(=O)O)NC2=O (relative stereo) [I-306, Ac-PL3-Asp-Trp-B5-Asp-3COOHF-Aib-Ala-Phe-Lys*3-PyrS2-3Thi-BztA-GlnR*3-Ala-NH2]	< 50	> 10	–
CC(=O)N1CCC[C@]12CC=CCCCC1(CCCC=CCCCOC(=O)N3CC[C@@]4(C3)NC(=O)[C@H](CCCCNC(=O)CC[C@@H](C(=O)N[C@@H](C)C(N)=O)NC(=O)[C@H](Cc3csc5ccccc35)NC(=O)[C@H](Cc3ccsc3)NC4=O)NC(=O)[C@H](Cc3ccccc3)NC(=O)[C@H](C)NC(=O)[C@H](CCC(N)=O)NC(=O)[C@H](Cc3cccc(C(=O)O)c3)NC(=O)[C@H](CC(=O)O)NC1=O)NC(=O)[C@H](CC(C)(C)C)NC(=O)[C@H](CCO)NC2=O (relative stereo) [I-89, Ac-PL3-Hse-Npg-B5-Asp-3COOHF-Gln-Ala-Phe-Lys*3-PyrS2-3Thi-BztA-GlnR*3-Ala-NH2]	50 to 200	> 10	–
CC(=O)N1CCC[C@]12CC=CCCCC1(CCCC=CCCCOC(=O)N3CC[C@@]4(C3)NC(=O)[C@H](CCCCNC(=O)CC[C@@H](C(=O)N[C@@H](C)C(N)=O)NC(=O)[C@H](Cc3csc5ccccc35)NC(=O)[C@H](Cc3ccccc3Cl)NC4=O)NC(=O)[C@H](Cc3ccccc3)NC(=O)[C@H](C)NC(=O)C(C)(C)NC(=O)[C@H](Cc3cccc(C(=O)O)c3)NC(=O)[C@H](CC(=O)O)NC1=O)NC(=O)[C@H](CC(C)(C)C)NC(=O)[C@H](CC(=O)O)NC2=O (relative stereo) [I-296, Ac-PL3-Asp-Npg-B5-Asp-3COOHF-Aib-Ala-Phe-Lys*3-PyrS2-2ClF-BztA-GlnR*3-Ala-NH2]	< 50	1.5 to 3	–
CC(=O)N1CCC[C@]12CC=CCCCC1(CCCC=CCCCOC(=O)N3CC[C@@]4(C3)NC(=O)[C@H](CCCCNC(=O)CC[C@@H](C(=O)N[C@@H](C)C(N)=O)NC(=O)[C@H](Cc3csc5ccccc35)NC(=O)[C@H](Cc3ccsc3)NC4=O)NC(=O)[C@H](Cc3ccccc3)NC(=O)[C@H](C)NC(=O)C(C)(C)NC(=O)[C@H](Cc3cccc(C(=O)O)c3)NC(=O)[C@H](CC(=O)O)NC1=O)NC(=O)[C@H](CCCN1CCOCC1)NC(=O)[C@H](CC(=O)O)NC2=O (relative stereo) [I-313, Ac-PL3-Asp-MorphNva-B5-Asp-3COOHF-Aib-Ala-Phe-Lys*3-PyrS2-3Thi-BztA-GlnR*3-Ala-NH2]	< 50	–	> 10
CC(=O)N1CCC[C@]12CC=CCCCC1(CCCC=CCCCOC(=O)N3CC[C@@]4(C3)NC(=O)[C@H](Cc3cn(nn3)CCCC[C@@H](C(N)=O)NC(=O)[C@H](Cc3csc5ccccc35)NC(=O)[C@H](Cc3ccsc3)NC4=O)NC(=O)[C@H](Cc3ccccc3)NC(=O)[C@H](C)NC(=O)[C@H](C)NC(=O)[C@H](Cc3cccc(C(=O)O)c3)NC(=O)[C@H](CC(=O)O)NC1=O)NC(=O)[C@H](CC(C)(C)C)NC(=O)[C@H](CC(=O)O)NC2=O (stereo partly drawn) [I-24, Ac-PL3-Asp-Npg-B5-Asp-3COOHF-Ala-Ala-Phe-sAla*3-PyrS2-3Thi-BztA-TriAzLys*3-NH2]	< 50	3 to 10	–
CC(=O)N1CCC[C@]12CC=CCCCC1(CCCC=CCCCOC(=O)N3CC[C@@]4(C3)NC(=O)[C@H](CCCCNC(=O)CC[C@@H](C(=O)N[C@@H](C)C(N)=O)NC(=O)[C@H](Cc3csc5ccccc35)NC(=O)[C@H](Cc3ccsc3)NC4=O)NC(=O)[C@H](Cc3ccccc3)NC(=O)[C@H](C)NC(=O)C(C)(C)NC(=O)[C@H](Cc3cccc(C(=O)O)c3)NC(=O)[C@H](CO)NC1=O)NC(=O)[C@H](CC(C)(C)C)NC(=O)[C@H](CC(=O)O)NC2=O (relative stereo) [I-166, Ac-PL3-Asp-Npg-B5-Ser-3COOHF-Aib-Ala-Phe-Lys*3-PyrS2-3Thi-BztA-GlnR*3-Ala-NH2]	50 to 200	3 to 10	–
CC(=O)N1CCC[C@]12CC=CCCCC1(CCCC=CCCCOC(=O)N3CC[C@@]4(C3)NC(=O)[C@H](CCCCNC(=O)CC[C@@H](C(=O)N[C@@H](CC(C)C)C(=O)N[C@@H](CCC(=O)O)C(=O)N[C@@H](CC(C)C)C(N)=O)NC(=O)[C@H](Cc3csc5ccccc35)NC(=O)[C@H](Cc3ccsc3)NC4=O)NC(=O)[C@H](Cc3ccccc3)NC(=O)[C@H](C)NC(=O)C(C)(C)NC(=O)[C@H](Cc3cccc(C(=O)O)c3)NC(=O)[C@H](CC(=O)O)NC1=O)NC(=O)[C@H](CC(C)(C)C)NC(=O)[C@H](CC(=O)O)NC2=O (single isomer, unassigned) [I-504, Ac-PL3-Asp-Npg-B5-Asp-3COOHF-Aib-Ala-Phe-Lys*3-PyrS2-3Thi-BztA-GlnR*3-Leu-Glu-Leu-NH2]	< 50	–	3 to 10

Second part, the compound after the results:

IC50 [1] [nM]	IC50 [2] [µM]	IC50 ([2]; absolute IC50) [µM]	Structure (SMILES)
< 50	1.5 to 3	–	CC(=O)N1CCC[C@]12CC=CCCCC1(CCCC=CCCCOC(=O)N3CC[C@@]4(C3)NC(=O)[C@H](CCCCNC(=O)CC[C@@H](C(=O)N[C@@H](C)C(N)=O)NC(=O)[C@H](Cc3csc5ccccc35)NC(=O)[C@H](Cc3ccccc3C(F)(F)F)NC4=O)NC(=O)[C@H](Cc3ccccc3)NC(=O)[C@H](C)NC(=O)[C@H](CC3CCCCC3)NC(=O)[C@H](Cc3cccc(C(=O)O)c3)NC(=O)[C@H](CC(=O)O)NC1=O)NC(=O)[C@H](CC(C)(C)C)NC(=O)[C@H](CC(=O)O)NC2=O (single isomer, unassigned) [I-101, Ac-PL3-Asp-Npg-B5-Asp-3COOHF-Cha-Ala-Phe-Lys*3-PyrS2-2F3MeF-BztA-GlnR*3-Ala-NH2]
50 to 200	> 10	–	CC(=O)N1CCC[C@]12CC=CCCCC1(CCCC=CCCCOC(=O)N3CC[C@@]4(C3)NC(=O)[C@H](CCCCNC(=O)CC[C@@H](C(=O)N[C@@H](C)C(N)=O)NC(=O)[C@H](Cc3csc5ccccc35)NC(=O)[C@H](Cc3ccsc3)NC4=O)NC(=O)[C@H](Cc3ccccc3)NC(=O)[C@H](C)NC(=O)[C@H](CO)NC(=O)[C@H](Cc3cccc(C(=O)O)c3)NC(=O)[C@H](CC(=O)O)NC1=O)NC(=O)[C@H](CC(C)(C)C)NC(=O)[C@H](CCO)NC2=O (relative stereo) [I-85, Ac-PL3-Hse-Npg-B5-Asp-3COOHF-Ser-Ala-Phe-Lys*3-PyrS2-3Thi-BztA-GlnR*3-Ala-NH2]
< 50	–	1.5 to 3	CC(=O)N1CCC[C@]12CC=CCCCC1(CCCC=CCCCOC(=O)N3CC[C@@]4(C3)NC(=O)[C@H](CCCCNC(=O)CC[C@@H](C(=O)N[C@@H](C)C(N)=O)NC(=O)[C@H](Cc3csc5ccccc35)NC(=O)[C@H](Cc3ccsc3)NC4=O)NC(=O)[C@H](Cc3ccccc3)NC(=O)[C@H](C)NC(=O)C(C)(C)NC(=O)[C@H](Cc3cccc(C(=O)O)c3)NC(=O)[C@H](CC(=O)O)NC1=O)NC(=O)[C@H](C(c1ccccc1)c1ccccc1)NC(=O)[C@H](CC(=O)O)NC2=O (single isomer, unassigned) [I-310, Ac-PL3-Asp-DipA-B5-Asp-3COOHF-Aib-Ala-Phe-Lys*3-PyrS2-3Thi-BztA-GlnR*3-Ala-NH2]
< 50	–	3 to 10	CC(=O)N1CCC[C@]12CC=CCCCC1(CCCC=CCCCOC(=O)N3CC[C@@]4(C3)NC(=O)[C@H](CCCCNC(=O)CC[C@@H](C(=O)N[C@@H](C)C(N)=O)NC(=O)[C@H](Cc3ccc(C)c(C)c3)NC(=O)[C@H](Cc3ccccc3C(F)(F)F)NC4=O)NC(=O)[C@H](Cc3ccccc3)NC(=O)[C@H](C)NC(=O)C(C)(C)NC(=O)[C@H](Cc3cccc(C(=O)O)c3)NC(=O)[C@H](CC(=O)O)NC1=O)NC(=O)[C@H](CC(C)(C)C)NC(=O)[C@H](CC(=O)O)NC2=O (relative stereo) [I-330, Ac-PL3-Asp-Npg-B5-Asp-3COOHF-Aib-Ala-Phe-Lys*3-PyrS2-2F3MeF-34MeF-GlnR*3-Ala-NH2]
200 to 750	> 10	–	CC(=O)N1CCC[C@]12CC=CCCCC1(CCCC=CCCCOC(=O)N3CC[C@@]4(C3)NC(=O)[C@H](CCCCNC(=O)CC[C@@H](C(=O)N[C@@H](C)C(N)=O)NC(=O)[C@H](Cc3csc5ccccc35)NC(=O)[C@H](Cc3ccsc3)NC4=O)NC(=O)[C@H](Cc3ccccc3)NC(=O)[C@H](C)NC(=O)C(C)(C)NC(=O)[C@H](Cc3cccc(C(=O)O)c3)NC(=O)[C@H](CCO)NC1=O)NC(=O)[C@H](CC(C)(C)C)NC(=O)[C@H](CC(=O)O)NC2=O (relative stereo) [I-168, Ac-PL3-Asp-Npg-B5-Hse-3COOHF-Aib-Ala-Phe-Lys*3-PyrS2-3Thi-BztA-GlnR*3-Ala-NH2]
< 50	< 1.5	–	CC(=O)N1CCC[C@]12CC=CCCCC1(CCCC=CCCCOC(=O)N3CC[C@@]4(C3)NC(=O)[C@H](CCCCNC(=O)CC[C@@H](C(=O)N[C@@H](CC(C)C)C(=O)N[C@@H](CO)C(N)=O)NC(=O)[C@H](Cc3csc5ccccc35)NC(=O)[C@H](Cc3ccccc3C(F)(F)F)NC4=O)NC(=O)[C@H](Cc3ccccc3)NC(=O)[C@H](C)NC(=O)C3(CCC3)NC(=O)[C@H](Cc3cccc(C(=O)O)c3)NC(=O)[C@H](CC(=O)O)NC1=O)NC(=O)[C@H](CC(C)(C)C)NC(=O)[C@H](CC(=O)O)NC2=O (relative stereo) [I-140, Ac-PL3-Asp-Npg-B5-Asp-3COOHF-Cbg-Ala-Phe-Lys*3-PyrS2-2F3MeF-BztA-GlnR*3-Leu-Ser-NH2]
< 50	–	3 to 10	CC(=O)N1CCC[C@]12CC=CCCCC1(CCCC=CCCCOC(=O)N3CC[C@@]4(C3)NC(=O)[C@H](CCCCNC(=O)CC[C@@H](C(=O)N[C@@H](CC(C)C)C(=O)N[C@@H](CCC(=O)O)C(=O)N[C@@H](C)C(N)=O)NC(=O)[C@H](Cc3csc5ccccc35)NC(=O)[C@H](Cc3ccsc3)NC4=O)NC(=O)[C@H](Cc3ccccc3)NC(=O)[C@H](C)NC(=O)C(C)(C)NC(=O)[C@H](Cc3cccc(C(=O)O)c3)NC(=O)[C@H](CC(=O)O)NC1=O)NC(=O)[C@H](CC(C)(C)C)NC(=O)[C@H](CC(=O)O)NC2=O (single isomer, unassigned) [I-494, Ac-PL3-Asp-Npg-B5-Asp-3COOHF-Aib-Ala-Phe-Lys*3-PyrS2-3Thi-BztA-GlnR*3-Leu-Glu-Ala-NH2]
